Experimental data from ChEMBL document CHEMBL1132473, “Inhibition and substrate activity of conformationally rigid vigabatrin analogues with gamma-aminobutyric acid aminotransferase” (J Med Chem, 1999).

Protein sequences, listed by entry. Tags and fused reporters are not part of them. Lines headed by an entry give the natural chain unless they say otherwise; changes in a name come on top.
UniProt P80147: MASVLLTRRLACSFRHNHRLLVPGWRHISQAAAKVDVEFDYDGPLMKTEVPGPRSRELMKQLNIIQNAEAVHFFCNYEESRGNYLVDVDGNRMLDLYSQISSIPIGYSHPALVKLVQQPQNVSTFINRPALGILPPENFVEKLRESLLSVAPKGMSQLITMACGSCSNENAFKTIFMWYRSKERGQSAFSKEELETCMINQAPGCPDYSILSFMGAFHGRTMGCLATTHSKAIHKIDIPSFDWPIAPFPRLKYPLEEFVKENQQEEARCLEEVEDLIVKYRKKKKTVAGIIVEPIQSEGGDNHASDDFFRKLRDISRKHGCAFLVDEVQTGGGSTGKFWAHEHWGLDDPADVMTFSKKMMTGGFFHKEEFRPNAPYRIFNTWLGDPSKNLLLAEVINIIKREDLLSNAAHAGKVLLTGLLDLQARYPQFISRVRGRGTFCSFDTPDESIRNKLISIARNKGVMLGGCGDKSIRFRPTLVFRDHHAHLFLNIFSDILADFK

Target: 4-aminobutyrate aminotransferase, mitochondrial (Sus scrofa) (UniProt P80147)

- k cat: 0.817 s⁻¹
SMILES: NCCCC(=O)O
